The test system of assay [1] is human breast cancer ZR-75-1 cells, androgen receptor. The experiment in a line: Androgenic (androgen receptor) activity in ZR-75-1 cells: cell growth and GCDFP-15/GCDFP-24 secretion. As to conditions: low concentrations. The assay is classed as cell-based. Here is the method:
Maintenance of stock cultures The ZR-75-1 human breast cancer cell line can be obtained from the American Type Culture Collection (Rockville, Md.). The cells are routinely cultured in phenol red-free RPMI 1640 medium supplemented with 10 nM E2, 15 mM Hepes, 2 mM L-glutamine, 1 mM sodium pyruvate, 100 IU penicillin per ml, 100 μg streptomycin sulfate per ml, and 10% (v/v) fetal bovine serum (FBS), in a water-saturated atmosphere of 95% air: 5% CO2 at 37° C.
Stock cultures in their logarithmic growth phase are harvested with 0.05% trypsin/0.02% EDTA (w/v) in Hanks' balanced salts solution and resuspended in E2- and phenol red-free RPMI 1640 medium containing 5% (v/v) dextran-coated charcoal (DCC)-treated FBS and 500 ng of bovine insulin per ml, but otherwise supplemented as described above for maintenance of stock cultures. […]
Fourty-eight hours after plating, fresh SD medium containing the appropriate concentrations of steroids are added. […] Cell number can be determined with a Coulter Counter.
Calculations and statistical analyses Apparent IC50 values are calculated using an iterative least squares regression (Rodbard, Endocrinology 94:1427-1437,1974), while apparent inhibition constants (Ki values) are calculated according to Cheng and Prusoff (Biochem. Pharmacol. 22: 3099-3108,1973). […]

Another assay concerns endometrial carcinoma. As to conditions: cited from earlier work.

As to `C[C@]1(O)CC[C@H]2[C@@H]3CCC4=CC(=O)CCC4=C3C=C[C@@]21C` [R1881, methyltrienolone], the androgenic activity entry in assay [1] was “possess androgenic activity at low concentrations”. The “growth of endometrial carcinoma in vitro” value in the assay with endometrial carcinoma was “growth inhibitory effects”.

(Values after patent US5861387A, “Controlled release systems and low dose androgens” (Endorecherche Inc., priority 1995, dated 1999).)
